Here are results for 1 compound from patent publication US20220389377A1, “TREATMENT OF MEDICAL CONDITIONS BY STEM CELL TRANSPLANTS AND STEM CELL ACTIVATION” (Vitro Biopharma, Inc., priority 2021, published 2022).

Settings in all cases: read-out: EC50 of Substance P-induced migration, percent closure at 24 hours, sigmoidal curve fit
Test [1] relates to human pancreatic fibroblasts. The procedure: (§1) FIG. 1 is a microphotograph depicting cell migration using fluorescent readout and cell tracker green as a fluorescent marker of human UC-MSCs. […] The EC50 was determined as a measure of effectiveness of activating agents. […] An initial analysis of the cell free zone using Image J software was used to screen concentrations of activating agents for dose-response determination in further experiments.
(§2) The cell migration assays described above were set up as follows: One million cells/cell line were resuspended in 10 mL MSC-Gro™ serum free, quiescent medium (Vitro Biopharma Cat. No. SCO0B17) containing 5 μg/mL mitomycin C (Sigma, Cat. No. M4287) to inhibit proliferation and incubated for 2 hours at room temperature with end-to-end agitation at 7 RPM.
(§3) In some experiments, curcumin was used at 1 μM to block proliferation. Cells were centrifuged (450×g) for 7 minutes, washed with PBS and then resuspended in 1 mL MSC-Gro™ low serum, complete medium (Vitro Biopharma Cat. No. SCO0B1) and plated at 25,000 cells/well in black 96 well, TC-coated cell culture plates (ThermoScientific, Cat. No. 165305) containing cell seed-stoppers (Platypus, Cat. No. CMAUFL4) to form a cell free zone at the center of the well and incubated in 5% CO2, 1% O2, 94% N2 at 37° C. in a humidified chamber for 24 hrs. Plates used for culture of NSCs were first treated with 10 μg/mL fibronectin (Sigma, Cat. No. F0556) for 2 hours at 37° C. Following washout with PBS (3×), cell seed stoppers were inserted, NSCs were plated at 25,000/well and incubated in 5% CO2, 1% O2, 94% N2 at 37° C. in a humidified chamber for 48 hrs.
(§4) For studies of the effects of CXCR4 and MMP-9 inhibition following 24 hours of cell culture, appropriate wells were dosed with 15 μM GM6001 and 20 μM AMD3100 for 6 hours. Cells were washed once with PBS then incubated in serum free, MSC-Gro™ (Vitro Biopharma Cat. No. SCO0B17) containing 5 μM Cell Tracker Green CIVIFDA (Molecular Probes, Cat. No. C7025) at 37° C. for 30 minutes. […] A TopSeal (PerkinElmer, Cat. No. 6050195) covered the plate for live-cell imaging in a BioTek Cytation3 imaging reader. […]

The subject of a further test is human MSCs. As for the experimental part: as §1, §2, §3, §4
The next test has as its system human NSCs. The procedure: as §1, §2, §3, §4

Each structure is given as a SMILES string.

`CSCC[C@H](NC(=O)[C@H](CC(C)C)NC(=O)CNC(=O)[C@H](Cc1ccccc1)NC(=O)[C@H](Cc1ccccc1)NC(=O)[C@H](CCC(N)=O)NC(=O)[C@H](CCC(N)=O)NC(=O)[C@@H]1CCCN1C(=O)[C@H](CCCCN)NC(=O)[C@@H]1CCCN1C(=O)[C@@H](N)CCCNC(=N)N)C(N)=O` [Substance P]: the EC50 stood at 2.5 nM in test [1], 2.48 nM in the test on human MSCs and 2.35 nM in the test with human NSCs.
